## scFv variants of Ab-14 (heavy chain) against a SARS-CoV-2 spike peptide

Target peptide (SARS-CoV-2 spike, HR2 region): PDVDLGDISGINAS

Parent: Ab-14, a human scFv built as VH, a 15-residue (Gly4Ser)3 linker, VL. Only the CDRs of the heavy chain vary.
VH: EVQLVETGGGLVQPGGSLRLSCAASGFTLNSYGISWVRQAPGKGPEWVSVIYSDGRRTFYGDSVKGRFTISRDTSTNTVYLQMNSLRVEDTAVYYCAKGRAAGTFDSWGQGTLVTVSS
VL: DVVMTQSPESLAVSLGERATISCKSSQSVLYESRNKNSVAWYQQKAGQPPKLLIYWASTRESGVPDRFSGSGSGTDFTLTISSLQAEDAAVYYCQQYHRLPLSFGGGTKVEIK

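Phage display of a naive human antibody library on the peptide gave the parent. Designed CDR sequences, proposed from the first random library and measured here. Several design methods are mixed in this list. The assay is AlphaSeq: two haploid yeast populations carry antibody and antigen on their surface. Pairs that bind mate more often; barcode pairs of the diploids are counted by sequencing. The ratio of observed to expected reads was calibrated, replicate by replicate, on BCL2-family standards whose Kd was known from biolayer interferometry. The assay was run in six technical replicates.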

Each variant is given by its three heavy chain CDRs, as the data file delimits them; those of the parent are GFTLNSYGIS, VIYSDGRRTFYGDSVK, GRAAGTFDS. This list holds designs with more than six substitutions. Numbers give log10(Kd / nM), so 0 is 1 nM and 3 is 1 µM. Smaller is tighter. Averages over replicates are reported, and they cover detected replicates only. An entry "nd" has no value in the source: the pair was not observed among the diploids in that replicate. This suggests poor binding but is not conclusive. In the paper, a design with two or fewer of six values counts as a poor binder. Background: pairings of all heavy chain designs with three empty control strains gave a value in 1% of cases (median 2.08, 5th percentile 0.84). Values in that range, when seen in few replicates, are hard to tell from nonspecific mating. Values of this round are not directly comparable with the first-round values of the same sequences. The parent sequence was in this pool as ten entries: three were never detected, three once, and four in most replicates, with averages from 0.34 to 2.37.

For GFELQEYGIS / VIYADGARTAYVDNVK / GDAVGIFHV, the assay gave 0.19, 0.38, 0.51, 0.49, 0.34, 0.25 (mean 0.36). With GFDLNEYGIS / VIYADGVRTFYADSVK / GNQAGTFDL the result was -0.34, -0.59, -0.53, -0.74, -0.67, -0.58 (mean -0.58). With GFDLDEYGIS / VIYADGSRTAYADSVK / GNTAGTFDQ the result was 0.24, 0.01, -0.16, -0.48, -0.13, 0.17 (mean -0.06). With GFDLNEYGIS / VIYADGMRTYYADSVK / GTNAGTFDV the result was -0.45, -0.27, -0.50, -0.68, -0.71, -0.43 (mean -0.51). For GFDLTEYGIS / VIYADGRRTAYQDAVK / GLNGGMLVV, the assay gave nd, nd, nd, nd, nd, nd. Variant GFDLNEYGIS / VIYADGMRTAYSDSVK / GNVAGTFDK showed -0.50, -0.67, -0.66, -1.17, -0.60, 0.33 (mean -0.55). Variant GFDIEEFGIS / VIYADGKRMAYSNNVK / GLMAGTMGD showed nd, nd, nd, nd, 0.81, -0.09 (mean 0.36).

For GFDLDEYGIS / VIYADGKRTAYVDSVK / GNVAGTFDQ, the assay gave -0.92, -1.19, -1.46, -0.72, 0.76, -0.23 (mean -0.63). For GFDLDEYGIS / VIYADGMRTAYVDSVK / GENAGTFDT, the assay gave -0.44, -1.09, -1.06, -0.92, -1.18, -0.76 (mean -0.91). With GFDLNEYGIS / VIYADGLRTAYADDVK / GNQAGTFDV the result was -0.24, -0.61, -0.48, -0.74, -0.27, -0.15 (mean -0.41). Variant GFDLLEYGIS / VIYADGSRVAYINNVK / GKNGAIGSN showed 0.60, 0.76, 0.86, 0.93, 0.56, 0.77 (mean 0.75). With GFDLNEYGIS / VIYADGRRTAYIDSVK / GNVAGTFDL the result was -0.26, -0.13, 0.07, -0.36, -0.01, -0.19 (mean -0.15). Variant GFDIDEYGIS / VIYADGQRKAYTDNVK / GNSGGMTVA showed nd, nd, nd, nd, nd, nd. For GFDLNEYGIS / VIYADGRRTAYSDSVK / GGNAGIFDS, the assay gave nd, nd, nd, nd, nd, 2.61.

With GESLDEFGIS / VIYADGMRTAYTDKVK / GLVAATLVD the result was nd, nd, nd, nd, nd, nd. For GFDLDEYGIS / VIYADGKRTAYADDVK / GNQAGTFDV, the assay gave nd, nd, nd, nd, nd, nd. With GFEIDEYGIS / VIYADGKRTSYSDTVK / GQLGNAFDL the result was nd, nd, nd, nd, nd, nd. With GFDLDEYGIS / VIYADGSRTAYSKNVK / GGFDDKVLV the result was nd, nd, nd, nd, nd, nd. Variant GFDLNEYGIS / VIYADGRRTFYTDSVK / GGNAGTFDK showed -0.50, -1.33, -1.14, -0.90, -0.99, -1.24 (mean -1.02). Variant GFDLNEYGIS / VIYADGMRTFYTDSVK / GANAGTFDQ gave -0.41, -0.03, -0.31, -0.76, -0.10, 1.05 (mean -0.09). Variant GFDLDEYGIS / VIYADGRRTFYADSVK / GNNAGTFDS gave -0.35, -0.71, -0.63, -0.87, -0.37, -0.07 (mean -0.50).

With GFDLNEYGIS / VIYADGVRSAYADSVK / GQNAGTFDV the result was -0.48, -0.62, -0.39, -0.68, -0.40, -0.53 (mean -0.52). Variant GFDLREMGIS / VIYADGRRVAYNDKVK / GNLTGTFDQ showed nd, nd, nd, nd, nd, nd. With GFDLDEYGIS / VIYADGSRKAYADSVK / GENAGTFDV the result was -0.58, -0.61, -0.73, -1.00, -0.45, -0.39 (mean -0.63). For GFDLNEYGIS / VIYADGMRTAYSDSVK / GNEAGTFDS, the assay gave -0.13, 0.13, -0.42, -0.25, -0.67, 0.09 (mean -0.21). Variant GFDIDEQGIS / VIYADGQRKAYTDNVK / GNSMGMTVA gave nd, nd, nd, nd, nd, nd. For GFDLNEYGIS / VIYADGMRTAYVDSVK / GTNAGTFDL, the assay gave 0.17, 0.18, -0.38, 0.12, -0.32, 0.04 (mean -0.03). Variant GFDLNEYGIS / VIYADGIRQHYKDKVK / GVVFGNVLF showed nd, nd, nd, nd, nd, nd.

For GFDLNEYGIS / VIYADGQRTVYADSVK / GNVAGTFDL, the assay gave -0.82, -0.49, -0.71, -0.96, -0.71, -0.84 (mean -0.75). Variant GFDLNEYGIS / VIYADGRRTAYSDSVK / GENAGTFDV showed -0.09, -0.15, -0.46, -0.19, -0.14, -0.38 (mean -0.23).

A selection of 2 entries from above:

{"CDR-H1": "GFDLNEYGIS", "CDR-H2": "VIYADGVRTFYADSVK", "CDR-H3": "GNQAGTFDL", "replicates, log10 nM": "-0.34, -0.59, -0.53, -0.74, -0.67, -0.58", "mean log10 Kd (nM)": "-0.58"}
{"CDR-H1": "GFDIEEFGIS", "CDR-H2": "VIYADGKRMAYSNNVK", "CDR-H3": "GLMAGTMGD", "replicates, log10 nM": "nd, nd, nd, nd, 0.81, -0.09", "mean log10 Kd (nM)": "0.36"}

The measurements come from Li et al. 2023 (doi:10.1038/s41467-023-39022-2) through the FLAb antibody collection.